Reference: PubChem BioAssay AID900 (National Center for Advancing Translational Sciences (NCATS), 2007)
This is a selection; strong and weak results do not stand in their true shares. Activity calls are given as the source filed them. Calls come from the whole dose curve; as a rule, active = well fitted inhibition curve with a large enough effect; inconclusive = small, poorly fitted or top-dose-only effect; inactive = flat fitted curve, though single readings scatter.

Each molecule was assayed against Caspase-1 (Homo sapiens) (UniProt P29466) (assay: qHTS Assay for Allosteric/Competitive Inhibitors of Caspase-1). Conditions: Caspase-1 enzyme, Ac-WEHD-AFC fluorogenic rate; at 57.5 µM (top of the series).
Source text: NIH Molecular Libraries Screening Centers Network [MLSCN]
NIH Chemical Genomics Center [NCGC]
PI Name: Dr. James Wells,
Dr. Enrique Perez-Paya, Dr.Janice Williams, Dr. Dennis Wolan, a person
The caspases (Cysteine Aspartyl Protease) comprise a related family of 14 dimeric proteases that are critical mediators of apoptosis (programmed cell death) and inflammation. The caspases represent an important class of drug targets for stroke, ischemia, cancer and inflammatory diseases. […] One goal of this project was to identify compounds that act as allosteric inhibitors via stabilizing the procaspase form of the enzyme. […]
The biochemical assay was configured using purified caspase 1 at a high enzyme concentration to promote formation of the homodimers and thus facilitate the identification of allosteric inhibitors. […] After initiation of the assay with substrate the plates were rapidly read using an automated robotic system (Kalypsys, Inc.) to maintain consistent timing. […]
Caspase 1 was prepared in buffer (50 mM HEPES pH 7.5, 50 mM KCl, 200 mM NaCl, 10 mM DTT, 0.1% CHAPS) at a concentration of 66.6 nM and 3 uL was dispensed to all wells using black solid Kalypsys 1536-well plates. […] The plates were then exposed using 405 nm excitation/520 nm emission filters for 4 sec and read at 20 sec intervals for 3 min. […]
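Note: plate controls were vehicle for no effect and no substrate for full effect.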

Structure (SMILES)	activity change, negative = inhibition
CN(CCCl)CCCl	inactive: -2.95%
O=[N+]([O-])C(Cl)(Cl)Cl	inactive: -3.61%
